Assay results: US20240360179A1, “STAPLED PEPTIDES AND METHODS THEREOF” (FOG PHARMACEUTICALS, INC., priority 2021, published 2024)

Amino acid sequences for entries named in this document (tags omitted).
UniProt P35222, whole entry: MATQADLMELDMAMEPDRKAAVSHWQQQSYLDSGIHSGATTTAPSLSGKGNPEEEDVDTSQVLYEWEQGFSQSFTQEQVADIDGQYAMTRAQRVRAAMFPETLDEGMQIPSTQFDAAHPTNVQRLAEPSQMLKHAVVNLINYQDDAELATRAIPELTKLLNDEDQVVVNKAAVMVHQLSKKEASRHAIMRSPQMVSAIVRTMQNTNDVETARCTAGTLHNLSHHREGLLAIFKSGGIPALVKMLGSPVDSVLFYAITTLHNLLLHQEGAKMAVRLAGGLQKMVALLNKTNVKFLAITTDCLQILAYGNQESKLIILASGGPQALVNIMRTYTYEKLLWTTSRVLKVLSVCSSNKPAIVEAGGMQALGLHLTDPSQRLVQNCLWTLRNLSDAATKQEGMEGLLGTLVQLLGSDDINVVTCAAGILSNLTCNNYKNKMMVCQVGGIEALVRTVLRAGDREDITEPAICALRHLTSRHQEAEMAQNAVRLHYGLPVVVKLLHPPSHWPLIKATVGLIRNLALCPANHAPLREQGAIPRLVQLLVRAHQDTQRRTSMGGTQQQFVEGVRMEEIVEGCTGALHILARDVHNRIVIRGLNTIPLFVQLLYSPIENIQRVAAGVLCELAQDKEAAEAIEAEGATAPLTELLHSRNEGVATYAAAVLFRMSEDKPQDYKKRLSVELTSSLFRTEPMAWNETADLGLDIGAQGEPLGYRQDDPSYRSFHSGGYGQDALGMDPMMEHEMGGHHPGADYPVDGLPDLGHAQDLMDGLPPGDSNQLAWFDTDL

Experiments:
[1] = biological target: beta-catenin/TCF4 interaction (Homo sapiens, UniProt P35222); test: cell-based; design: host or cells: HEK293; settings: NanoBRET Abs IC50 (uM)
[2] = biological target: T1, full-length B-Catenin (Uniprot ID P35222) (Homo sapiens, UniProt P35222); test: biochemical; type: binding; settings: beta-Catenin FP IC50 (nM), competition fluorescence polarization
T1 construct: 10 nM full-length B-Catenin (Uniprot ID P35222)

Row | IC50 [1] | IC50 [2] | Compound
1 | 1.5 to 3 µM | < 50 nM | CC(=O)N1CCC[C@]12CC=CCCCC1(CCCC=CCCCOC(=O)N3CC[C@@]4(C3)NC(=O)[C@H](CCC(=O)NCCCC[C@@H](C(=O)N[C@@H](C)C(N)=O)NC(=O)[C@H](Cc3csc5ccccc35)NC(=O)[C@H](Cc3ccsc3)NC4=O)NC(=O)[C@H](Cc3ccccc3)NC(=O)[C@H](C)NC(=O)[C@H](C)NC(=O)[C@H](Cc3cccc(C(=O)O)c3)NC(=O)[C@H](CC(=O)O)NC1=O)NC(=O)[C@H](CC(C)(C)C)NC(=O)[C@H](CC(=O)O)NC2=O (relative stereo) [I-43, Ac-PL3-Asp-Npg-B5-Asp-3COOHF-Ala-Ala-Phe-GlnR*3-PyrS2-3Thi-BztA-Lys*3-Ala-NH2]
2 | 1.5 to 3 µM | < 50 nM | CC(=O)N1CCC[C@]12CC=CCCCC1(CCCC=CCCCOC(=O)N3CC[C@@]4(C3)NC(=O)[C@H](CCCCNC(=O)CC[C@@H](C(N)=O)NC(=O)[C@H](Cc3csc5ccccc35)NC(=O)[C@H](Cc3ccccc3C(F)(F)F)NC4=O)NC(=O)[C@H](Cc3ccccc3)NC(=O)[C@H](C)NC(=O)[C@H](C)NC(=O)[C@H](Cc3cccc(C(=O)O)c3)NC(=O)[C@H](CC(=O)O)NC1=O)NC(=O)[C@H](CC(C)(C)C)NC(=O)[C@H](CC(=O)O)NC2=O (relative stereo) [I-55, Ac-PL3-Asp-Npg-B5-Asp-3COOHF-Ala-Ala-Phe-Lys*3-PyrS2-2F3MeF-BztA-GlnR*3-NH2]
3 | 1.5 to 3 µM | < 50 nM | CC(=O)N1CCC[C@]12CC=CCCCC1(CCCC=CCCCOC(=O)N3CC[C@@]4(C3)NC(=O)[C@H](CCCCNC(=O)CC[C@@H](C(=O)N[C@@H](C)C(N)=O)NC(=O)[C@H](Cc3csc5ccccc35)NC(=O)[C@H](Cc3ccccc3C(F)(F)F)NC4=O)NC(=O)[C@H](Cc3ccccc3)NC(=O)[C@H](C)NC(=O)[C@H](C)NC(=O)[C@H](Cc3cccc(C(=O)O)c3)NC(=O)[C@H](CC(=O)O)NC1=O)NC(=O)[C@H](CC(C)(C)C)NC(=O)[C@H](CC(=O)O)NC2=O (relative stereo) [I-57, Ac-PL3-Asp-Npg-B5-Asp-3COOHF-Ala-Ala-Phe-Lys*3-PyrS2-2F3MeF-BztA-GlnR*3-Ala-NH2]

Further lines, the compound ahead of its results:

Row | Compound | IC50 [1] | IC50 [2]
4 | CC(=O)N1CCC[C@]12CC=CCCCC1(CCCC=CCCCOC(=O)N3CC[C@@]4(C3)NC(=O)[C@H](CCCCNC(=O)C[C@@H](C(N)=O)NC(=O)[C@H](Cc3csc5ccccc35)NC(=O)[C@H](Cc3ccccc3C(F)(F)F)NC4=O)NC(=O)[C@H](Cc3ccccc3)NC(=O)[C@H](C)NC(=O)[C@H](C)NC(=O)[C@H](Cc3cccc(C(=O)O)c3)NC(=O)[C@H](CC(=O)O)NC1=O)NC(=O)[C@H](CC(C)(C)C)NC(=O)[C@H](CC(=O)O)NC2=O (relative stereo) [I-56, Ac-PL3-Asp-Npg-B5-Asp-3COOHF-Ala-Ala-Phe-Lys*3-PyrS2-2F3MeF-BztA-AsnR*3-NH2] | 3 to 10 µM | < 50 nM
5 | CC(=O)N1CCC[C@]12CC=CCCCC1(CCCC=CCCCOC(=O)N3CC[C@@]4(C3)NC(=O)[C@H](CCCCNC(=O)CC[C@@H](C(=O)N[C@@H](C)C(N)=O)NC(=O)[C@H](Cc3csc5ccccc35)NC(=O)[C@H](Cc3ccccc3C(F)(F)F)NC4=O)NC(=O)[C@H](Cc3ccccc3)NC(=O)[C@H](C)NC(=O)[C@H](CCC(N)=O)NC(=O)[C@H](Cc3cccc(C(=O)O)c3)NC(=O)[C@H](CC(=O)O)NC1=O)NC(=O)[C@H](CC(C)(C)C)NC(=O)[C@H](CC(=O)O)NC2=O (relative stereo) [I-60, Ac-PL3-Asp-Npg-B5-Asp-3COOHF-Gln-Ala-Phe-Lys*3-PyrS2-2F3MeF-BztA-GlnR*3-Ala-NH2] | 3 to 10 µM | < 50 nM
6 | CC(=O)N1CCC[C@]12CC=CCCCC1(CCCC=CCCCOC(=O)N3CC[C@@]4(C3)NC(=O)[C@H](CCCCNC(=O)C[C@@H](C(=O)N[C@@H](C)C(N)=O)NC(=O)[C@H](Cc3csc5ccccc35)NC(=O)[C@H](Cc3ccccc3C(F)(F)F)NC4=O)NC(=O)[C@H](Cc3ccccc3)NC(=O)[C@H](C)NC(=O)[C@H](CCC(N)=O)NC(=O)[C@H](Cc3cccc(C(=O)O)c3)NC(=O)[C@H](CC(=O)O)NC1=O)NC(=O)[C@H](CC(C)(C)C)NC(=O)[C@H](CC(=O)O)NC2=O (relative stereo) [I-61, Ac-PL3-Asp-Npg-B5-Asp-3COOHF-Gln-Ala-Phe-Lys*3-PyrS2-2F3MeF-BztA-AsnR*3-Ala-NH2] | > 10 µM | < 50 nM
